In test [1] the target is T1, Deoxyxylulose 5-phosphate synthase (PtDXS) (Populus trichocarpa, UniProt U5G0H4, A425G).
T1 construct: gene POPTR_010G015200; C-terminally His-tagged PtDXS
T1 sequence (U5G0H4 74-721 A425G): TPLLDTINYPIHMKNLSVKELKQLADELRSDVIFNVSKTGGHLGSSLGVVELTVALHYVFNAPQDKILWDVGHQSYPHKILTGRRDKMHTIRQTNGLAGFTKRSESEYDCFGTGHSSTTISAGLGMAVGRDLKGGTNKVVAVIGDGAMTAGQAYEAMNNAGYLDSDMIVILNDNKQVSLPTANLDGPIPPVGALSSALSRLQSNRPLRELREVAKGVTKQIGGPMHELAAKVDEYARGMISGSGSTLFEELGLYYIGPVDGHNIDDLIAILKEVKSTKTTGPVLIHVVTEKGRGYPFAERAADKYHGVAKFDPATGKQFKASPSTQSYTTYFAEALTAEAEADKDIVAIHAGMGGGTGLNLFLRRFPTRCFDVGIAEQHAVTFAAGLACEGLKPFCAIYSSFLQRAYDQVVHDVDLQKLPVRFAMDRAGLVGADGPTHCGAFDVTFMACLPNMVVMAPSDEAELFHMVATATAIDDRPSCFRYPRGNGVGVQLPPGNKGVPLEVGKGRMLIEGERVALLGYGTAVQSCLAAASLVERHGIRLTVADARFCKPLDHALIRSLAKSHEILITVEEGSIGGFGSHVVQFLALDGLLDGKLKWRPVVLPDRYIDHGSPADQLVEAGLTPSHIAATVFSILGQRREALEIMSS
The test is classed as biochemical.

By UniProt entry, the sequences of proteins in these tests, tags left out. Residues count along the entry.
UniProt U5G0H4, 74-721 A220G/A425G: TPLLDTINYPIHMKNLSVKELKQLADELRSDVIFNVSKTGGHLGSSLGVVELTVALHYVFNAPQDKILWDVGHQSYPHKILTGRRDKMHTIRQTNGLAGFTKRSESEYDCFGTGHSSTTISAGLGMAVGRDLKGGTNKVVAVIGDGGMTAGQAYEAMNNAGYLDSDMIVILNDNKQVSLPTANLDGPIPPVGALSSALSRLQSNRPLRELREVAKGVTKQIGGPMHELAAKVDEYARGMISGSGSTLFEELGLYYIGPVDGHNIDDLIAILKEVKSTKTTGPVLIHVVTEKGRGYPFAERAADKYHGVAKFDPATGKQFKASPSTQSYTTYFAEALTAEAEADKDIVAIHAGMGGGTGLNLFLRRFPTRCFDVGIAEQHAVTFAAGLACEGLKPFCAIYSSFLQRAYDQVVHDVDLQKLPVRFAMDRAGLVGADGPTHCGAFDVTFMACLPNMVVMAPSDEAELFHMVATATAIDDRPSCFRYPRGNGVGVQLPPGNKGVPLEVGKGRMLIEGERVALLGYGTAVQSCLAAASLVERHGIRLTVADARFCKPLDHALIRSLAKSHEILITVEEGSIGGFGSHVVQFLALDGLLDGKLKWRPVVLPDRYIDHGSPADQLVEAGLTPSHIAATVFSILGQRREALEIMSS
UniProt U5G0H4, 74-721 A220G: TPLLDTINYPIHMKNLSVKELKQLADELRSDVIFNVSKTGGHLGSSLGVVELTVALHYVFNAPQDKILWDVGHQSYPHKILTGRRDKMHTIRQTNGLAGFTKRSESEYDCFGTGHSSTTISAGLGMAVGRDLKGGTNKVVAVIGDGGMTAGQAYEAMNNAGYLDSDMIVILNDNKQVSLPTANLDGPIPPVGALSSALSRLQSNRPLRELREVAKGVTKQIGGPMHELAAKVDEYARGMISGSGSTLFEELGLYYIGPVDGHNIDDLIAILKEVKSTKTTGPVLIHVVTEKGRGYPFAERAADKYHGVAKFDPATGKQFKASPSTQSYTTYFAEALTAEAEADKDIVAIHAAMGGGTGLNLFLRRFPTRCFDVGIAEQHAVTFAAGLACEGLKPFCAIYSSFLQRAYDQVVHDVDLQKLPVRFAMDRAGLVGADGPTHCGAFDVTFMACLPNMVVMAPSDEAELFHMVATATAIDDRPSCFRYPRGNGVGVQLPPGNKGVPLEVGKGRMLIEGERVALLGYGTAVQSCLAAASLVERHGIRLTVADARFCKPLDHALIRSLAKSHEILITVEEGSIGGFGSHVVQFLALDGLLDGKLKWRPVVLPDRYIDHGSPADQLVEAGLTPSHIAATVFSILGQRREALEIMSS

Test [2] has as its target T2, Deoxyxylulose 5-phosphate synthase (PtDXS) (Populus trichocarpa, UniProt U5G0H4, A220G/A425G).
T2 construct: gene POPTR_010G015200; C-terminally His-tagged PtDXS
T2 sequence (U5G0H4 74-721 A220G/A425G): T1 sequence (U5G0H4 74-721 A425G) with A147G
As to the kind of experiment: biochemical.

Test [3] addresses T3, Deoxyxylulose 5-phosphate synthase (PtDXS) (Populus trichocarpa, UniProt U5G0H4, A220G).
T3 construct: gene POPTR_010G015200; C-terminally His-tagged PtDXS
T3 sequence (U5G0H4 74-721 A220G): T1 sequence (U5G0H4 74-721 A425G) with A147G, G352A
Description: biochemical.

Numbering of substitutions follows the chain as printed.

The Ki is a measure of affinity in units of concentration, obtained from inhibition or displacement. `C=C(C)CCO[P@@](=O)(O)OP(=O)(O)O` [IDP]: the inhibition constant Ki in test [1] is 31 ± 4 µM; in test [2], 268 ± 75 µM; in test [3], 73 ± 2 µM.

For the origin of these results see article PMC4993486, “Engineering of Recombinant Poplar Deoxy-D-Xylulose-5-Phosphate Synthase (PtDXS) by Site-Directed Mutagenesis Improves Its Activity” (PLoS ONE, 2016).
